Consider four molecules from ChEMBL document CHEMBL4342505, “Achieving In Vivo Target Depletion through the Discovery and Optimization of Benzimidazolone BCL6 Degraders” (J Med Chem, 2020).

The structures appear in SMILES notation.

The target of the assay is B-cell lymphoma 6 protein (Homo sapiens, UniProt P41182).
By IC50 is commonly meant the concentration at which inhibition is half-maximal. A lower IC50 goes with greater potency in that assay. For the molecule `C[C@H](O)CCn1c(=O)n(C)c2ccc(Nc3ccnc(Cl)c3C#N)cc21`, inhibition was half-maximal at 3900 nM (IC50).

`C[C@@H](O)CCn1c(=O)n(C)c2ccc(Nc3ccnc(Cl)c3C#N)cc21` yielded an IC50 of 1700 nM.

For `Cn1c(=O)n(CCC(C)(C)O)c2cc(Nc3ncnc(Cl)c3C#N)ccc21`, the midpoint of inhibition, the IC50, lay at 2500 nM.

Consider `Cn1c(=O)n(CCC(C)(C)O)c2cc(Nc3nc(Cl)ncc3Cl)ccc21`, for which 1900 nM corresponded to half-maximal inhibition (IC50).
